Test results from ChEMBL document CHEMBL3885881, “DrugMatrix”.

Organism: Rattus norvegicus
Experiment: DrugMatrix - Regimen: Daily Repeat
Type: toxicity, organism-based, Sprague-Dawley
Parameters: regimen Daily Repeat, gender Male, age 6-8 weeks
Conditions: in vivo
[1] = ip, 0 mg/kg, […], tissue Plasma, route intraperitoneal, dose level Control, time 14 day, vehicle 100 % SALINE
[2] = po, […], 72 h, tissue Plasma, route oral GAVAGE, dose 0.77 mg/Kg, dose level Low, time 3 day, vehicle .5 % CMC
[3] = po, […], 72 h, tissue Plasma, route oral GAVAGE, dose 7.5 mg/Kg, dose level High, time 3 day, vehicle .5 % CMC

Sequence: COLISTIN
- ALBUMIN (po, 0 mg/kg, 72 h, tissue Plasma, route oral GAVAGE, dose level Control, time 3 day, vehicle 100 % WATER): 3.75 G/DL
- MEAN CORPUSCULAR HEMOGLOBIN CONCENTRATION (po, 0 mg/kg, 120 h, tissue Blood, route oral GAVAGE, dose level Control, time 5 day, vehicle 100 % WATER): 39.44 G/DL
- ALBUMIN (po, 0 mg/kg, 120 h, tissue Plasma, route oral GAVAGE, dose level Control, time 5 day, vehicle 100 % WATER): 3.73 G/DL
- ALBUMIN (po, 24 mg/kg, 120 h, tissue Plasma, route oral GAVAGE, dose level Low, time 5 day, vehicle 100 % WATER): 3.73 G/DL

Sequence: GENTAMICIN
- ALBUMIN [1]: 4.05 G/DL
- URIC ACID [1]: 1.57 mg/dL
- CHLORIDE (ip, 0 mg/kg, […], tissue Plasma, route intraperitoneal, dose level Control, time 28 day, vehicle 100 % SALINE): 105.4 MEQ/L
- HEMATOCRIT (sc, 34 mg/kg, 120 h, tissue Blood, route subcutaneous, dose level Low, time 5 day, […]): 37.5%

Sequence: IVERMECTIN
- ALBUMIN [2]: 3.47 G/DL
- GLUCOSE [2]: 161.67 mg/dL
- ALBUMIN [3]: 3.63 G/DL
- GLUCOSE [3]: 169 mg/dL
